Drawing on article PMC4203401 (Journal of Medicinal Chemistry, 2014), this text covers IC50 for 1 molecule.

The assay has as its target HIV-1 IN (rIN), strand transfer (Human immunodeficiency virus type 1 group M subtype B, UniProt P04585). In words: HIV-1 IN gel-based assay, strand transfer. In kind it is biochemical. To be noted: IC50 for strand transfer.

What is called IC50 is the concentration that gives 50% inhibition. High values mean a need for much substance, low ones inhibition by little substance. Take `CC(=O)N1CCN(c2ccc3c(=O)c(C(=O)/C=C(\O)C(=O)O)cn(Cc4ccc(F)cc4)c3c2)CC1` [Compound 12d, 4-[1-[(4-Fluorophenyl)methyl]-7-(N-acetylpiperazin-1-yl)-4-(1H)-quinolinon-3-yl]-2-hydroxy-4-oxo-2-butenoic Acid]: the concentration for half-maximal inhibition (IC50) was less than 100 nM.
